Results reported in ChEMBL document CHEMBL1135445, “4'-Arylpyrrolomorphinans: effect of a pyrrolo-N-benzyl substituent in enhancing delta-opioid antagonist activity” (J Med Chem, 2002).
pKi: −log10 of the molar value.

The chains behind the UniProt entries cited, without tags or fusion partners. Where a name states a change or a piece, a line headed by the entry shows the natural chain unless it says otherwise.
UniProt P41145: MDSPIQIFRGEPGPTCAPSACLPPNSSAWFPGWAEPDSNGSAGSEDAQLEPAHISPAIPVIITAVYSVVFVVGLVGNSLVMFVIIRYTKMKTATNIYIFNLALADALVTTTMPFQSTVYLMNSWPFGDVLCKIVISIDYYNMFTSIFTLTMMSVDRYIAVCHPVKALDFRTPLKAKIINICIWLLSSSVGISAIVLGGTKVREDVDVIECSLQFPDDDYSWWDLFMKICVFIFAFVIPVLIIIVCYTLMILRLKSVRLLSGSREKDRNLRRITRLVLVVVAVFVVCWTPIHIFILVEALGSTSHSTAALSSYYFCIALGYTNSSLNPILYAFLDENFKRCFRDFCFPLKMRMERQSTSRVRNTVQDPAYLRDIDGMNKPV

Biological target: Kappa-type opioid receptor (Homo sapiens, UniProt P41145)
Experiment: Binding affinity towards recombinant human Opioid receptor kappa 1 transfected in to CHO cells for the displacement of [3H]U-69593
Type: cell-based
Summary of the method: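 Radioligand displacement (Ki) at cloned human opioid receptors expressed in CHO cells. Radioligands: [3H]DAMGO for mu, [3H]Cl-DPDPE for delta, [3H]U69593 for kappa.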

For `Oc1ccc2c3c1O[C@H]1c4[nH]c5ccccc5c4C[C@@]4(O)[C@@H](C2)N(CC2CC2)CC[C@]314` [NALTRINDOLE], the pKi was 8.00.
